This note sets out measurements from patent US8877732B2, “Combination, kit and method of reducing intraocular pressure” (Inotek Pharmaceuticals Corporation, priority 2010, dated 2014).

This experiment deals with intraocular pressure (IOP) in normotensive monkeys. As to the kind of experiment: IOP after single topical ocular dosing of Compound A with or after latanoprost in conscious normotensive monkeys (Treatments 1-5). As to conditions: Compound A 100 mcg (aqueous suspension, 4 or 5 h after) or 500 mcg (HPβCD, immediately after) latanoprost 1.5 mcg, 1 hour after Compound A, each arm, n=10. Format: in vivo, cynomolgus monkeys (Macaca fascicularis). The procedure:
Compound A was administered in two different formulations: […]
In one formulation, lyophilized Compound A to HPβCD in 1:20 (wt/wt) was reconstituted with 0.9% Saline for Injection, USP.
The aqueous formulation comprised of the following: […]
The control in the first treatment was a 40 mcL composition of 0.8% sodium chloride (NaCl), 0.15% citrate, 0.01% benzalkonium chloride, 0.3% polysorbate 80, and 0.7% sodium (Na) carboxymethylcellulose.
In the third treatment, 10 monkeys received latanoprost (Xalatan™) dosed via 2 drops at 15 mcL apart (at a concentration of 50 mcg/mL) for a total dose of 1.5 mcg in one study eye and 2 drops of saline vehicle in the contralateral eye. This treatment was performed at two separate times with a sufficient washout between treatments. The IOPs of both the study eye and contralateral eye were measured repeatedly using a calibrated pneumotonometer following an application of a topical anesthetic (proparacaine).
In the fourth treatment, 10 monkeys received latanoprost (Xalatan™) topically dosed via 2 drops at 15 mcL apart (at a concentration of 50 mcg/mL) for a total dose of 1.5 mcg in one study eye and saline in the contralateral eye. […] The intraocular pressures (IOP) of both the study eye and contralateral eye were measured repeatedly using a calibrated pneumotonometer following an application of a topical anesthetic (proparacaine). […]

As to `O=[N+]([O-])OC[C@H]1O[C@@H](n2cnc3c(NC4CCCC4)ncnc32)[C@H](O)[C@@H]1O` [Compound A, ((2R,3S,4R,5R)-5-(6-(cyclopentylamino)-9H-purin-9-yl)-3,4-dihydroxytetrahydrofuran-2-yl)methyl nitrate], the “reduction in IOP relative to latanoprost alone” value is given as “further significant reduction in IOP”.
